Biological target: human JAK1 (a.a. 837-1142)
Test: In vitro JAK kinase assay (HTRF, phosphorylation of a biotinylated peptide), JAK1
Format: biochemical
Conditions: measured at 1 mM ATP
Experimental: Compounds herein were tested for inhibitory activity of JAK targets according to the following in vitro assay described in Park et al., Analytical Biochemistry 1999, 269, 94-104. The catalytic domains of human JAK1 (a.a. 837-1142), Jak2 (a.a. 828-1132) and Jak3 (a.a. 781-1124) with an N-terminal His tag were expressed using baculovirus in insect cells and purified. The catalytic activity of JAK1, JAK2 or JAK3 was assayed by measuring the phosphorylation of a biotinylated peptide. The phosphorylated peptide was detected by homogenous time resolved fluorescence (HTRF). […] Reactions were carried out at room temperature for 1 hr and then stopped with 20 μL 45 mM EDTA, 300 nM SA-APC, 6 nM Eu-Py20 in assay buffer (Perkin Elmer, Boston, Mass.). Binding to the Europium labeled antibody took place for 40 minutes and HTRF signal was measured on a Fusion plate reader (Perkin Elmer, Boston, Mass.).

Row | Structure (SMILES) | IC50 Ratio JAK2/JAK1
1 | N#CCC1(n2cc(-c3ncnc4[nH]ccc34)cn2)CN(C2CCN(C(=O)Nc3ccc(F)cc3C(F)(F)F)CC2)C1 [Example 154, 4-{3-(Cyanomethyl)-3-[4-(7H-pyrrolo[2,3-d]pyrimidin-4-yl)-1H-pyrazol-1-yl]azetidin-1-yl}-N-[4-fluoro-2-(trifluoromethyl)phenyl]piperidine-1-carboxamide] | 22.0
2 | N#CCC1(n2cc(-c3ncnc4[nH]ccc34)cn2)CN(C2CC3CCC(C2)N3C(=O)C2CCCCC2)C1 (stereo not drawn) [Example 147, {1-[8-(cyclohexylcarbonyl)-8-azabicyclo[3.2.1]oct-3-yl]-3-[4-(7H-pyrrolo[2,3-d]pyrimidin-4-yl)-1H-pyrazol-1-yl]azetidin-3-yl}acetonitrile] | 6.1
3 | N#CCC1(n2cc(-c3ncnc4[nH]ccc34)cn2)CN(C2CC3CCC(C2)N3C(=O)C2CCC(F)(F)CC2)C1 (stereo not drawn) [Example 148, {1-{8-[(4,4-difluorocyclohexyl)carbonyl]-8-azabicyclo[3.2.1]oct-3-yl}-3-[4-(7H-pyrrolo[2,3-d]pyrimidin-4-yl)-1H-pyrazol-1-yl]azetidin-3-yl}acetonitrile] | 5.7
4 | N#CCC1(n2cc(-c3ncnc4[nH]ccc34)cn2)CN(C2CC3CCC(C2)N3C(=O)C2CCCC2)C1 (stereo not drawn) [Example 145, {1-[8-(cyclopentylcarbonyl)-8-azabicyclo[3.2.1]oct-3-yl]-3-[4-(7H-pyrrolo[2,3-d]pyrimidin-4-yl)-1H-pyrazol-1-yl]azetidin-3-yl}acetonitrile] | 3.6
5 | N#CCC1(n2cc(-c3ncnc4[nH]ccc34)cn2)CN(C2CC3CCC(C2)N3C(=O)c2ccnc(C(F)(F)F)c2)C1 (stereo not drawn) [Example 144, (3-[4-(7H-pyrrolo[2,3-d]pyrimidin-4-yl)-1H-pyrazol-1-yl]-1-{8-[2-(trifluoromethyl)isonicotinoyl]-8-azabicyclo[3.2.1]oct-3-yl}azetidin-3-yl)acetonitrile] | 3.9
6 | Cc1ccc(C#N)c(N2CCC(C(=O)N3CCC(N4CC(CC#N)(n5cc(-c6ncnc7[nH]ccc67)cn5)C4)CC3)CC2)n1 [Example 108, 2-{4-[(4-{3-(cyanomethyl)-3-[4-(7H-pyrrolo[2,3-d]pyrimidin-4-yl)-1H-pyrazol-1-yl]azetidin-1-yl}piperidin-1-yl)carbonyl]piperidin-1-yl}-6-methylnicotinonitrile] | 1.4

The next lines start with the values.

Row | IC50 Ratio JAK2/JAK1 | Structure (SMILES)
7 | 3.8 | N#CCC1(n2cc(-c3ncnc4[nH]ccc34)cn2)CN(C2CCN(C(=O)c3cccc(Cl)c3)CC2)C1 [Example 19, {1-[1-(3-chlorobenzoyl)piperidin-4-yl]-3-[4-(7H-pyrrolo[2,3-d]pyrimidin-4-yl)-1H-pyrazol-1-yl]azetidin-3-yl}acetonitrile]
8 | 6.2 | N#CCC1(n2cc(-c3ncnc4[nH]ccc34)cn2)CN(C2CCN(C(=O)c3ccc(C#N)c(F)c3)CC2)C1 [Example 66, 4-[(4-{3-(cyanomethyl)-3-[4-(7H-pyrrolo[2,3-d]pyrimidin-4-yl)-1H-pyrazol-1-yl]azetidin-1-yl}piperidin-1-yl)carbonyl]-2-fluorobenzonitrile]
9 | 3.8 | COc1cc(C(F)(F)F)sc1C(=O)N1CCC(N2CC(CC#N)(n3cc(-c4ncnc5[nH]ccc45)cn3)C2)CC1 [Example 70, {1-{1-[3-methoxy-5-(trifluoromethyl)-2-thienylcarbonyl]piperidin-4-yl}-3-[4-(7H-pyrrolo[2,3-d]pyrimidin-4-yl)-1H-pyrazol-1-yl]azetidin-3-yl}acetonitrile]
10 | 2.1 | N#CCC1(n2cc(-c3ncnc4[nH]ccc34)cn2)CN(C2CCN(C(=O)c3ccc(-c4cccnc4)cc3F)CC2)C1 [Example 120, {1-[1-(2-fluoro-4-pyridin-3-ylbenzoyl)piperidin-4-yl]-3-[4-(7H-pyrrolo[2,3-d]pyrimidin-4-yl)-1H-pyrazol-1-yl]azetidin-3-yl} acetonitrile]
11 | 2.5 | N#CCC1(n2cc(-c3ncnc4[nH]ccc34)cn2)CN(C2CCN(C(=O)c3ccc(-c4nccs4)c(F)c3)CC2)C1 [Example 122, {1-{1-[3-fluoro-4-(1,3-thiazol-2-yl)benzoyl]piperidin-4-yl}-3-[4-(7H-pyrrolo[2,3-d]pyrimidin-4-yl)-1H-pyrazol-1-yl]azetidin-3-yl}acetonitrile]
12 | 3.9 | Cc1csc(C(=O)N2CCC(N3CC(CC#N)(n4cc(-c5ncnc6[nH]ccc56)cn4)C3)CC2)c1 [Example 79, {1-{1-[(4-methyl-2-thienyl)carbonyl]piperidin-4-yl}-3-[4-(7H-pyrrolo[2,3-d]pyrimidin-4-yl)-1H-pyrazol-1-yl]azetidin-3-yl}acetonitrile]

Reference: patent US10695337B2, “Piperidin-4-yl azetidine derivatives as JAK1 inhibitors” (Incyte Corporation, priority 2010, dated 2020)
